Test results taken from PubChem BioAssay AID504634 (The Scripps Research Institute Molecular Screening Center, 2011).
“And” between values parts separate entries of the source, which are not always exact repeats. Equal entries are not always repeated. Only a part is listed here, and it is no random draw. The source made the active and inactive calls. Rule as the data show it: active = inhibition mostly above about 23% (no sharp cut-off); inactive = mostly below about 18%.

Protein sequences, listed by entry. Tags and fused reporters are not part of them.
UniProt P47898, whole entry, looked up: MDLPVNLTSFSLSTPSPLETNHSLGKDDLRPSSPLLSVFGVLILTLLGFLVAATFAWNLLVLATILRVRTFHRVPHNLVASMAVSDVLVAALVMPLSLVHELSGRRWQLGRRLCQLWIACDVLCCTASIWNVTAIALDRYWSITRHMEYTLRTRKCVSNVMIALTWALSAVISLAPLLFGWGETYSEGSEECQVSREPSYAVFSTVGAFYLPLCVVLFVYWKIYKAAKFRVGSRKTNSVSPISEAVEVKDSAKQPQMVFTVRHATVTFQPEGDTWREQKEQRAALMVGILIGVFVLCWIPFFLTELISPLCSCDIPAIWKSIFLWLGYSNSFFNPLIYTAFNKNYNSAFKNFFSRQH

Molecular target: 5-hydroxytryptamine receptor 5A (Homo sapiens) (UniProt P47898)
Experiment: HTR5A inverse agonists in luminescence cell assay, primary screen, counter-screen for OPRM1-OPRD1 heterodimer inverse agonist project, full-deck HTS (AID 504634);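 also: 0% = cells with DMSO and 100% = no-cell wells with DMSO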
Conditions: HTR5A cell line, inverse agonism, at 9.3 µM, active compounds read high

| SMILES | inhibition |
| --- | --- |
| CC(O)c1nc2ccccc2n1CC(=O)Nc1ccc(F)cc1Cl (stereo not given) | inactive: 20.2% |
| CN1CCC(N(C)c2nc(-c3ccc([N+](=O)[O-])cc3)nc3ccccc23)CC1 | inactive: 9.45% |
| O=C(Nc1ccc(F)cc1)N1CCn2c(nc3ccccc32)C1 | inactive: 6.55% |
| C[C@H](NC(=O)N1CCn2c1nc1ccccc12)C(=O)NCc1ccco1 | inactive: 2.81% |
| O=C1Nc2ccccc2C12Nc1ccccc1-c1nc3ccccc3n12 (stereo not given) | inactive: -4.67% |
| CC(NC(=O)[C@H](C)NC(=O)N1CCn2c1nc1ccccc12)c1ccccc1 (stereo not given in full) | inactive: -2.62% |
| Cc1ccccc1NC(=O)Cn1c(=O)n(C)c2ccccc21 | inactive: 4.47% |
| Cc1ccccc1OCC(O)Cn1c(=N)n(CCN2CCOCC2)c2ccccc21 (stereo not given) | inactive: 4.56% and inactive: -20.6% |
| CCN(CC)CCn1c(NCc2ccc3c(c2)OCO3)nc2ccccc21 | inactive: -17.2% |
| O=C(NCc1ccccc1)N1CCn2c(nc3ccccc32)C1 | inactive: -3.35% |
| Cn1c(=O)c2c(ncn2CC(=O)N/N=C/C(Br)=C/c2ccccc2)n(C)c1=O | inactive: -38.4% |
| O=[N+]([O-])c1ccc(-c2cc([N+](=O)[O-])c(O)c([N+](=O)[O-])c2)cc1 | inactive: 5.12% |
| Cc1ccc(S(=O)(=O)Nc2ccc3c(c2)nc2n3CCN(Cc3ccccc3)C2)cc1 | inactive: -37.4% |
| COc1ccc(NC(=O)N2CCn3c2nc2ccccc23)cc1 | inactive: 0.88% |
| O=[As](O)(c1ccc(O)cc1)c1ccccc1O | inactive: -3.42% |
| C[As](=O)(O)c1cccc(C(=O)O)c1 | inactive: -18.2% |
| CN1CCN(c2nc3c(c(=O)[nH]c(=O)n3C)n2CC(N)=O)CC1 | inactive: -3.4% |
| CSc1nc2ccccc2n1CC(=O)Nc1c(C)cccc1C | inactive: 10.7% |
| Cc1ccc(SCc2nc3ccccc3n2CC(=O)Nc2c(C)cccc2C)cc1 | inactive: -21.3% |
| CC1c2nc3ccccc3n2C(CC(=O)NCCCN2CCOCC2)C(=O)N1Cc1ccccc1 (stereo not given) | inactive: -3.11% |
| COc1ccc(CCNC(=O)[C@@H](NC(=O)N2CCn3c2nc2ccccc23)C(C)C)cc1OC | inactive: -2.06% |
| O=C(Cn1c(-c2ccccn2)nc2ccccc21)NCCN1CCOCC1 | inactive: -10.8% |
| O=[N+]([O-])c1cc([N+](=O)[O-])c(-c2ccn[nH]2)s1 | inactive: -1.78% |

| SMILES | inhibition |
| --- | --- |
| O=C(Cn1cnc2c(NCc3ccccc3)ncnc21)NCCCc1ccccc1 | inactive: -1.17% |
| O=C(Cn1c2[n+](c3ccc(C(F)(F)F)cc31)CCCCC2)Nc1c(F)cccc1F | inactive: -1.72% |
| COC(=O)[C@H](CC(C)C)NC(=O)Cn1cnc2c(SC)nc(N)nc21 | inactive: -0.04% |
| Cn1c(=O)c2c(ncn2CC(=O)Nc2nc(-c3ccccc3Cl)cs2)n(C)c1=O | inactive: -4% |
| O=C(OC1CN2CCC1CC2)c1cccc2[nH]cnc12 (stereo not given) | inactive: 1.14% |
| C=C(C)Cn1c(=O)c2c(nc3n2CCN3c2cccc(Cl)c2C)n(C)c1=O | inactive: -1.85% |
| CCN(CC)C(=S)SC(NC=O)C(Cl)(Cl)Cl (stereo not given) | inactive: 2.5% |
| O=C(Nc1nc2ccccc2n1CCN1CCOCC1)c1cn(-c2ccccc2)nc1-c1ccccc1 | inactive: 11.9% |
| COc1cc(NC(=O)Cn2cnc3c(OCc4ccccc4)ncnc32)cc(OC)c1OC | inactive: -9.67% |
| O=C(CCNC(=O)N1CCn2c1nc1ccccc12)NCc1ccc(F)cc1 | inactive: 16% |
| O=C(Cn1c(C(F)(F)F)nc2ccccc21)N1CCCC1 | inactive: -12% |
| Cc1ccc(-c2csc(NCCn3c(C)nc4cc(C(F)(F)F)ccc43)n2)cc1 | inactive: -5.07% |
| Cc1ccc(Cn2nnnc2CN2CCC(n3nnc4cc(C)ccc43)CC2)cc1 | inactive: -0.27% |
| Cn1c(=O)c2c(nc(CN3CCC(Cc4ccccc4)CC3)n2CCN2CCOCC2)n(C)c1=O | inactive: 10.1% |
| CC1CCN(C(=O)Cn2cnc3c2c(=O)n(C)c(=O)n3C)c2ccccc2S1 (stereo not given) | inactive: 16.4% |
| Cc1cccc(CSc2nc3ccncc3n2CC(=O)Nc2cc(C)cc(C)c2)c1 | inactive: -24.1% |
| C[C@H](NC(=O)N1CCn2c1nc1ccccc12)C(=O)NC1CC1 | inactive: 7.95% |
| CCC(=O)Nc1cccc(C(=O)/C=C/c2ccc(F)cc2)c1 | inactive: 17.5% |
| Cc1ccc(NC(=O)Cn2cnc3c(=O)n(C)c(=O)n(C)c32)c(C)c1 | inactive: -2.36% |
| CCOC(=O)CC[C@H](NC(=O)Cn1cnc2c(NCc3ccccc3)ncnc21)C(=O)OCC | inactive: -10.1% |
| Cc1nc2ccccc2n1CC(=O)NCCN1CCCC1 | inactive: -4.46% |
| CC1(C)c2ccccc2N2CCC(=O)NC21/C=C/c1ccco1 (stereo not given) | inactive: 6.24% |
| Cc1ccsc1/C=N/NC(=O)Cn1cnc2ccccc21 | inactive: -15.7% |

| SMILES | inhibition |
| --- | --- |
| ClCCSc1nnc(-c2cccnc2)o1 | inactive: -1.23% |
| Cn1c(=O)c2c(ncn2CC(=O)N2CCN(c3cccc(Cl)c3)CC2)n(C)c1=O | inactive: -2.15% |
| Cc1ccc2c(c1)C1CN(C)CCC1N2C(=O)CCCN1C(=O)c2cccc3cccc(c23)C1=O (stereo not given) | inactive: 5.04% |
| Cc1cc(C)c(CN2CCN(C(=O)Cn3cnc4c(NCc5ccccc5)ncnc43)CC2)c(C)c1 | inactive: -24.3% |
| CC(C)NC(=O)Cn1c(SCC(=O)c2ccc(F)cc2)nc2ccccc21 | inactive: -19.8% |
| N=c1n(CCN2CCCCC2)c2ccccc2n1CC(=O)c1cccc([N+](=O)[O-])c1 | inactive: -14.2% |
| CCC(=O)Nc1nc2ccccc2n1CCN(CC)CC | inactive: 12.2% |
| COc1ccccc1NC(=O)N1CCn2c(nc3ccccc32)C1 | inactive: -25.2% |
| COC(=O)c1ccc(CNC(=O)Cn2cnc3c(SC)nc(N)nc32)cc1 | inactive: -6.87% |
| CC(C)c1ccc(OP(=O)(Nc2ccccn2)Oc2ccccc2F)cc1 (stereo not given) | inactive: 11.4% |
| c1csc(CNc2nc3ccccc3n2CCN2CCOCC2)c1 | inactive: -11.2% |
| CCC(C(=O)NC1CCCCC1)n1c(SCc2ccccc2F)nc2ccncc21 (stereo not given) | inactive: -1.91% |
| COC(=O)C1(C)COP(=O)(N2CCCCCC2)OC1 (stereo not given) | inactive: 5.88% |
| Oc1ccccc1CNc1nc2ccccc2n1CCN1CCCCC1 | inactive: -9.78% |
| Cc1nc2ccccc2n1C1CCN(Cc2nnnn2CCc2ccccc2)CC1 | inactive: -3.73% |
| O=C(Nc1nc2ccccc2n1CCN1CCCC1)c1ccc(Cl)cc1 | inactive: -5.97% |
| CC1c2nc3ccccc3n2C(CC(=O)NCc2ccccn2)C(=O)N1Cc1ccccc1 (stereo not given) | inactive: -8.58% |
| CC(=O)Nc1ccc(C(=O)CSc2nc3ccccc3n2CC(=O)N2CCCC2)cc1 | inactive: 11% |
| Cc1ccc2c(c1)C1CN(C)CCC1N2C(=O)c1cccs1 (stereo not given) | inactive: -1.9% |
| Cc1ccc2c(c1)C1CN(C)CCC1N2C(=O)COc1ccc(N(C)C(=O)C(C)(C)C)cc1 (stereo not given) | inactive: 5.43% |
| Nc1ncnc2c1ncn2CCN1CCOCC1 | inactive: 7.76% |
| CC(C)[C@H](NC(=O)N1CCn2c1nc1ccccc12)C(=O)NC1CCCCC1 | inactive: -25.4% |
| CCN(CC)CCNC(=S)N1CCn2c(nc3ccccc32)C1 | inactive: 14.4% |

| SMILES | inhibition |
| --- | --- |
| COc1ccc(/C=N/c2nc3ccccc3n2CCN2CCCCC2)cc1OC | inactive: 14.2% |
| CC(=O)Nc1ccc(NC(=O)Cn2c(CC(=O)N3CCCC3)nc3ccccc32)cc1 | inactive: -19.4% |
| Cc1cc(SC(NC(=O)c2ccccc2)C(Cl)(Cl)Cl)nc(C(C)C)n1 (stereo not given) | inactive: -23.2% |
| CSc1nc(N)nc2c1ncn2CC(=O)NCc1ccccc1 | inactive: -19.9% |
| CCCN(C(=O)Cn1c(C(F)(F)F)nc2ccccc21)C1CCS(=O)(=O)C1 (stereo not given) | inactive: 13.5% |
| CC(C)[C@H](NC(=O)N1CCn2c1nc1ccccc12)C(=O)N1CCCCC1 | inactive: -31.1% |
| Cc1ccc(-c2csc(N3CCC[C@@H]3C(=O)NCCn3c(C(F)(F)F)nc4ccccc43)n2)cc1 | inactive: -6.37% |
| CCCNC(=O)CC1C(=O)N(Cc2ccccc2)C(C)c2nc3ccccc3n21 (stereo not given) | inactive: -11.3% |
| COc1ccc(S(=O)(=O)N2CCn3c2nc2ccccc23)cc1 | inactive: -9.45% |
| Cc1ccc2c(c1)C1CN(C)CCC1N2C(=O)COc1ccccc1F (stereo not given) | inactive: 7.86% |
| CCOC(=O)Nc1ccc([As](=O)(O)O)c(O)c1 | inactive: 0.81% |
| Cc1ccc(S(=O)(=O)c2nc(-c3ccccc3Cl)oc2N(C)C2CCN(C)CC2)cc1 | inactive: -6.97% |
| Nc1ncnc2c1ncn2CCNCCc1ccccc1 | inactive: -20.1% |
| O=C(Cn1c(C(F)(F)F)nc2ccccc21)NCCCN1CCOCC1 | inactive: -13.2% |
| CCCCC(=O)Nc1nnc(/C=C/c2ccc(OC)cc2)s1 | inactive: -7.05% |
| CC(C)C[C@H](NC(=O)N1CCn2c1nc1ccccc12)C(=O)NCCc1ccccc1 | inactive: 17% |
| Cc1cc(C)cc(N(CC(=O)N2CCn3c2nc2ccccc23)S(=O)(=O)c2c(C)noc2C)c1 | inactive: -29.7% |
| C[C@H](O)[C@@H]1C(=O)N2CCc3ccc(N4CCN(C)CC4)cc3[C@@H]2C[C@@H]1N(C)C(=O)NC1CCCCC1 | inactive: -7.01% |
| COCC(=O)N(C)[C@H]1C[C@H]2c3cc(-c4ccccc4)ccc3CCN2C(=O)[C@H]1[C@H](C)O | inactive: 3.56% |
| CC1CCNP(=O)(N(CCCl)CCCl)O1 (stereo not given) | inactive: 3.15% |
| Cc1ccc(N(CC(=O)N2CCn3c2nc2ccccc23)S(=O)(=O)c2c(C)n[nH]c2C)cc1 | inactive: -20.8% |
